Assays:
human recombinant MAO B = conditions: cited from earlier work
human recombinant MAO A = conditions: cited from earlier work
human recombinant MAO-B [1] = molecular target: T1, human recombinant MAO-B (Homo sapiens, UniProt P27338); experiment: kynuramine oxidation deamination assay, MAO-B inhibition (IC50); format: biochemical; design: purchased BD Biosciences (Bedford, MA, USA); conditions: kynuramine 50 μM, mean ± S.D. of triplicate
Method: A fixed single concentration of kynuramine substrate and varying concentrations of the test inhibitor were used to determine the IC50 values. […] These concentrations of kynuramine were twice the apparent KM value for substrate binding. […] Enzymatic reactions were performed in 50 μL of the assay mixture containing 0.1 M potassium phosphate buffer, pH 7.4. […] Reactions were initiated by the addition of 12.50 μL of MAO-A (to 5 μg/mL) or -B (to 10 μg/mL). The plate was incubated for 20 min at 37 °C, and the enzymatic reaction was terminated by the addition of 18.8 μL of 2N NaOH. Formation of the enzyme product, 4-hydroxyquinoline, was measured fluorometrically using a SpectraMax M5 fluorescence plate reader (Molecular Devices, Sunnyvale, CA, USA) with excitation (320 nm) and emission (380 nm) wavelengths and the Soft Max Pro program. The inhibition effects of enzyme activity were calculated as percent of product formation compared to the corresponding control (enzyme–substrate reaction) without inhibitors. Controls included the assays where the enzyme or the substrate was added after terminating the reaction to determine the interference with the fluorescence measurements. The IC50 values for MAO-A and -B inhibition were calculated from the concentration-dependent inhibition curves using XLFit® software.

Chains of the proteins cited; added tags and fusions are not shown.
UniProt P27338, whole entry: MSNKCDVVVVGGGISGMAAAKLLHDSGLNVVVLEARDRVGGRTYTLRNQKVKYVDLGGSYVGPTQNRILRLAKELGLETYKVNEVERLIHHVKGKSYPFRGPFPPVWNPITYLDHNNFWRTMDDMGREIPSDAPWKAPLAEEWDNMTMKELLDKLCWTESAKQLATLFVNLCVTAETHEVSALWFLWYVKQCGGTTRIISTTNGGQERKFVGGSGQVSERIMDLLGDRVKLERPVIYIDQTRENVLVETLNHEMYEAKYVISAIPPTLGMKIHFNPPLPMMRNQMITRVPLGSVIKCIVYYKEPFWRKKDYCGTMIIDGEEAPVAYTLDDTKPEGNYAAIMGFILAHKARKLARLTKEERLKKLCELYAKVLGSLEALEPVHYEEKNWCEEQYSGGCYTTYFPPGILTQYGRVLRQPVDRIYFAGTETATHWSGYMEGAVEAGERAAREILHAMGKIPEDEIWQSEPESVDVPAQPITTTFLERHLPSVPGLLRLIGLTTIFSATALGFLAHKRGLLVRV

human recombinant MAO-B [2] = molecular target: T1, human recombinant MAO-B; experiment: MAO-B inhibition kinetics, Lineweaver–Burk (Ki, type of inhibition); format: biochemical; design: purchased BD Biosciences (Bedford, MA, USA); conditions: kynuramine 1.90–500 μM, mean ± S.D. of triplicate experiments, read-out: Monoamine Oxidase B Ki
Method: The controls without inhibitor were also run simultaneously. Three sets of assays were performed at varying concentrations of the substrate for each experiment: one control without inhibitor and the others at two fixed concentrations of the inhibitor. The data were analyzed by double reciprocal Lineweaver–Burk plots to determine Ki (i.e., inhibition/binding affinity) values and the kinetic data, namely Km, Vmax, and Ki values, were computed by SigmaPlot 12 [9].
Modified flavonoids (1–4) c were evaluated against MAO-B at varying concentrations of kynuramine, a nonselective substrate, to investigate the nature of inhibition of the enzymes. Based on dose–concentration inhibition, three to five concentrations (below and above the concentration of IC50 values) were selected for the inhibition kinetics experiment.

IC50 (human recombinant MAO-B [1]) | Ki (human recombinant MAO-B [2]) | Structure (SMILES) | Selectivity Index MAO-A/B (human recombinant MAO B) | IC50 (human recombinant MAO A)
 |  | COc1cc(O)c2c(=O)c(O)c(-c3ccc(O)cc3)oc2c1 [Rhamnocitrin] | 0.02 | 51 ± 1 nM
42 ± 2.1 nM | 21 ± 1.8 nM | COc1ccc(-c2cc(=O)c3c(O)cc(O)cc3o2)cc1 [Acacetin, reference compound] |  | 
